The target in series [1] is TYK2 JH2 pseudokinase domain (Homo sapiens, UniProt P29597). Nature of the series: KdELECT competition binding assay, TYK2 JH2. As to conditions: read-out: TYK2 JH2 Pseudokinase Domain Binding (Kd); isolated TYK2 JH2 domain.
In series [2] the test system is IFNα-induced TYK2/phosphoSTAT1 (Tyr701) in Kit225 T cells. In words: Kit225 T cell assay for IFNα-induced TYK2/phosphoSTAT1 activity. The note with it: read-out: IC50 IFNα-induced-STAT1 Phosphorylation, 80 ng/mL IFNα, AlphaLISA. In kind it is cell-based, human. A general note: Alpha assays give light when donor and acceptor beads are brought close together.
In series [3] the test system is IL23-induced TYK2/phosphoSTAT3 (Tyr705) in Kit225 T cells. In words: Kit225 T cell assay for IL23-induced TYK2/phosphoSTAT3 activity. As to conditions: read-out: IC50 IL23-induced-STAT3 Phosphorylation, 100 ng/mL IL23, AlphaLISA. It counts as cell-based, human.
Series [4] has as its system IFNα-induced CXCL10 production in human whole blood. Nature of the series: IFNα-induced CXCL10 production in human whole blood. In kind it is cell-based. As to conditions: IFNα 16 hours.
Series [5] has as its target hERG (Homo sapiens, UniProt Q12809).

Amino acid sequences for entries named in this document (tags omitted). Residues count along the entry.
UniProt P29597, 589-875 limits assumed: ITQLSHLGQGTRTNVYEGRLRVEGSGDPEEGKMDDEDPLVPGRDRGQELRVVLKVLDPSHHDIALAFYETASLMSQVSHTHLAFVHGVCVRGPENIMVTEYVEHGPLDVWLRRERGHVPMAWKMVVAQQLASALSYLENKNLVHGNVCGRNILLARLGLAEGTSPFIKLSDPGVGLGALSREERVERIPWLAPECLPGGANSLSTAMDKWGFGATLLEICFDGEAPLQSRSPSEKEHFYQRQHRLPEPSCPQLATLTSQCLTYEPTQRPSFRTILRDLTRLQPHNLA
UniProt Q12809, whole entry: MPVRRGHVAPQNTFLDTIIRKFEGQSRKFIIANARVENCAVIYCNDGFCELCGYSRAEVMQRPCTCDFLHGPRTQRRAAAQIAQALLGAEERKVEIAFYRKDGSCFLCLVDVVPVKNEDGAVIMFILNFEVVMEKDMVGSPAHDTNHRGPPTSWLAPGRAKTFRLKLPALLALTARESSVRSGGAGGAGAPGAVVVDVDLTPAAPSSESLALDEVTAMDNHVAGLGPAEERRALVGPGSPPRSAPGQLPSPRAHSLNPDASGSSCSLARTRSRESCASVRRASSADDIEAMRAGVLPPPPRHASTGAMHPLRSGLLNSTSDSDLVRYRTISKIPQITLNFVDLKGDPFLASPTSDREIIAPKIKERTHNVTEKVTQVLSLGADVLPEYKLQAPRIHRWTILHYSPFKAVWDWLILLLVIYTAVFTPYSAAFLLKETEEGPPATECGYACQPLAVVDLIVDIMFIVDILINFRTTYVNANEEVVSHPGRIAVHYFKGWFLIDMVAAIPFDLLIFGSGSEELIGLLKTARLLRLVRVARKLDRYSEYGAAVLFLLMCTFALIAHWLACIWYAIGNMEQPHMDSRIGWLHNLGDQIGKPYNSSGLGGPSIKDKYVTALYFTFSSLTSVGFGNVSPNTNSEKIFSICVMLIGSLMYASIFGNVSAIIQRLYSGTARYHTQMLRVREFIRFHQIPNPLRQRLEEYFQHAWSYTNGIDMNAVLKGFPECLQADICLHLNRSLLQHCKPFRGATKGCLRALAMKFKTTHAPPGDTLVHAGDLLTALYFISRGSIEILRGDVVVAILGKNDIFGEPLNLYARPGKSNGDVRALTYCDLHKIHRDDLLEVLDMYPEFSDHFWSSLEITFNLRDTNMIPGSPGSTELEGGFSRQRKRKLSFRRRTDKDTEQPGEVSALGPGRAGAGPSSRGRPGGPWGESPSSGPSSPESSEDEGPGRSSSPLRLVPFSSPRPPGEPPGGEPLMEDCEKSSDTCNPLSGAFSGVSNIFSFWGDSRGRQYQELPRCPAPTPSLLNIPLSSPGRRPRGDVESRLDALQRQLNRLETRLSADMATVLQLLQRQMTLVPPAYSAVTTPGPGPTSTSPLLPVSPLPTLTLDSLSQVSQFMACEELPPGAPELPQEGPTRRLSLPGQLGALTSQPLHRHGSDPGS

pIC50, pKd: −log10 of the molar value. “And” between values parts separate entries of the source, which are not always exact repeats. Equal values may be shown once.

For the compound `[2H]C([2H])([2H])NC(=O)c1nnc(NC(=O)C2CC2)cc1Nc1cccc(-c2nc3c(o2)CN(S(C)(=N)=O)C3)c1OC` (single isomer, unassigned) [SHR4995], the pKd (commonly the negative decadic logarithm of the Kd, by convention in mol/L) in series [1] is 11.47. The pIC50 was 7.49 and 7.59 in series [2]; 7.41 and 7.28 in series [3]; less than 4.52 in series [5]. Also, in series [4], the “TYK2-associated IFNα-induced-CXCL10 Production in Human Whole Blood: IC50” value is on record as 290 nM.
On to `[2H]C([2H])([2H])NC(=O)c1nnc(NC(=O)C2CC2)cc1Nc1cccc(-c2nc3c(o2)CN(S(C)(=N)=O)C3)c1OC` (single isomer, unassigned) [SHR4997], for which the pKd in series [1] was 11.37. In addition, the pIC50 is 7.43 and 7.55 in series [2]; 7.37 and 7.31 in series [3]; 4.72 in series [5]. The “TYK2-associated IFNα-induced-CXCL10 Production in Human Whole Blood: IC50” value in series [4] is 280 nM.

These data come from PMC9186491, “Novel Small Molecule Tyrosine Kinase 2 Pseudokinase Ligands Block Cytokine-Induced TYK2-Mediated Signaling Pathways” (Frontiers in Immunology, 2022).
